Values of other authors in patent US12211592B2.

Amino acid sequences for entries named in this document (tags omitted).
UniProt P50750, whole entry: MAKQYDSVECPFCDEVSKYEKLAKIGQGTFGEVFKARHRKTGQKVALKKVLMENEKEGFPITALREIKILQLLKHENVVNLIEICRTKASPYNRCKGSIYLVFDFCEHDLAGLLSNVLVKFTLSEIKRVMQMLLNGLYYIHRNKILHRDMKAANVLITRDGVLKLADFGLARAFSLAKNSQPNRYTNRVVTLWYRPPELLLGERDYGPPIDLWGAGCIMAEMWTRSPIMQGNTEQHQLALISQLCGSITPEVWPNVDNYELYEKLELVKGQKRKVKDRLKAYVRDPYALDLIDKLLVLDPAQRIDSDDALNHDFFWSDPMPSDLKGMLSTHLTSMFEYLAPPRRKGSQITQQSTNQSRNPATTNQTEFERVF
UniProt O60563, whole entry partner: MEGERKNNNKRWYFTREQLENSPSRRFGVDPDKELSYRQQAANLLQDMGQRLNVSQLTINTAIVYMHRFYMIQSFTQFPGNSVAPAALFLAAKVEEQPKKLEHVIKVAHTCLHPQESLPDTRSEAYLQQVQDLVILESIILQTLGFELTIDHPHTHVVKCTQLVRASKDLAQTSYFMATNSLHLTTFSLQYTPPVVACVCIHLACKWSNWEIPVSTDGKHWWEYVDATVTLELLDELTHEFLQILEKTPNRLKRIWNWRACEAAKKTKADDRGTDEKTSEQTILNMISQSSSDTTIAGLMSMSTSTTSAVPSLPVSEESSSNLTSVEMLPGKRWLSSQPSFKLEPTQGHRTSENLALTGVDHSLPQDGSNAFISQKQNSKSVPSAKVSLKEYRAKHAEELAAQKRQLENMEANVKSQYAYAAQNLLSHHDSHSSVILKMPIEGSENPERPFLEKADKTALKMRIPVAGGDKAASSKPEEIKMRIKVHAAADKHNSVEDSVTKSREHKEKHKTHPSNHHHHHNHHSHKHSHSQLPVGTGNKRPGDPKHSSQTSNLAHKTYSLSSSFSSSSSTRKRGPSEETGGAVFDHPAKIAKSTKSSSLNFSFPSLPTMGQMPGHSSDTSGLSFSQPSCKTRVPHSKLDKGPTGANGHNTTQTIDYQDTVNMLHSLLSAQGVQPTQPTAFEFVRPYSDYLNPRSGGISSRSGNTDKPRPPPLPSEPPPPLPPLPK

Assays:
[1] = target: CDK9 (Homo sapiens, UniProt P50750); conditions: qualitative statement
[2] = qualitative statement, proven in vivo

oral bioavailability [2]	Compound	CDK9 subtype selectivity [1]	ligand efficiency [1]
oral bioavailability	CN1CCC(c2c(O)cc(O)c3c(=O)cc(/C=C/c4c(Cl)cccc4Cl)oc23)C(O)C1 (stereo not shown)	subtype selective CDK9 inhibitor activity	–
–	COc1ccccc1-c1cc(Nc2ccccn2)ncn1	subtype selective CDK9 inhibitor activity	good ligand efficiency
